“And” between values parts separate entries of the source, which are not always exact repeats. Equal entries are not always repeated. Where two headings read alike, the source gives them in different places.
Assays:
mice = details: OATP1B2(-/-) mice + Nilotinib
hNTCP = molecular target: T1, hNTCP (Homo sapiens, UniProt Q14973); test: Vincristine uptake screen, HeLa cells overexpressing hNTCP; type: in vitro ADME
T1 sequence (Q14973 1-349): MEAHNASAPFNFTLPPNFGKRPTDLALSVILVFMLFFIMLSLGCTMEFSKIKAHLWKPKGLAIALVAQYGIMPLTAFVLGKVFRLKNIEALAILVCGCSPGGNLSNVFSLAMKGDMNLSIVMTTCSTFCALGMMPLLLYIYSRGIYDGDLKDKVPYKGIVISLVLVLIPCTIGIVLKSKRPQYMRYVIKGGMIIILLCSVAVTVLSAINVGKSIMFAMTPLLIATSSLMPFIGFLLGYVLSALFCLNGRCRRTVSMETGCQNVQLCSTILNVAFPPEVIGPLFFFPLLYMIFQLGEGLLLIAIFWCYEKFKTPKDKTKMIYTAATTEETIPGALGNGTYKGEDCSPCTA

Row | Compound | Paw withdrawal threshold (%Δ from baseline) (mice; Day 3) [%] | Paw withdrawal threshold (%Δ from baseline) (mice; Day 6) [%] | Vincristine uptake (% of vector control) (hNTCP)
1 | Cc1cn(-c2cc(NC(=O)c3ccc(C)c(Nc4nccc(-c5cccnc5)n4)c3)cc(C(F)(F)F)c2)cn1 [Nilotinib, nilotinib] | 92.8 | 92.8 | –
2 | CC[C@]1(O)C[C@H]2CN(CCc3c([nH]c4ccccc34)[C@@](C(=O)OC)(c3cc4c(cc3OC)N(C=O)[C@H]3[C@@](O)(C(=O)OC)[C@H](OC(C)=O)[C@]5(CC)C=CCN6CC[C@]43[C@@H]65)C2)C1 [Vincristine, vincristine] | – | – | 111.00 % of vector control and 83.00 % of vector control and 98.00 % of vector control and 116.00 % of vector control and 118.00 % of vector control and 141.00 % of vector control and 97.00 % of vector control

From publication PMC10443802, “Targeting a xenobiotic transporter to ameliorate vincristine-induced sensory neuropathy” (JCI Insight, 2023)
